Data published in ChEMBL document CHEMBL3853313, “Iminoguanidines as Allosteric Inhibitors of the Iron-Regulated Heme Oxygenase (HemO) of Pseudomonas aeruginosa” (J Med Chem, 2016).
Calls of active or inactive are those of the source. No cut-off for these calls is given here.

Tests used:
[1] = molecular target: T1, Heme oxygenase (Pseudomonas aeruginosa) (UniProt O69002); experiment: Binding affinity to Pseudomonas aeruginosa apo-HemO (76 to 84 residues) by HXMS method
T1 sequence (whole entry): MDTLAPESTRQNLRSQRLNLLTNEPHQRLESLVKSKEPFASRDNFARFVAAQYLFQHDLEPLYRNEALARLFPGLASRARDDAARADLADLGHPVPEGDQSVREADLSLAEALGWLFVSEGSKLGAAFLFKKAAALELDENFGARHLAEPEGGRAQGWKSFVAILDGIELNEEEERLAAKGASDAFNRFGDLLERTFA

[2] = molecular target: T1, Heme oxygenase (Pseudomonas aeruginosa); experiment: Binding affinity to Pseudomonas aeruginosa apo-HemO (92 to 102 residues) by HXMS method

Question: With CN(C)c1ccc(/C=N/NC(=N)N)cc1.Cl as the compound, how does the Activity [1] read?
Answer: Active

Question: And the Activity [2]?
Answer: Active
